Tests used:
[1] = test system: NCI-H838 MTAP(-/-) deleted cells; assay: Cell-Titer Glo proliferation inhibition, single agents and combinations, 144 h; conditions: for IC20 / IC50 / Maximum Inhibition Rate (%): single agent
Procedure: The NCI-H838 MTAP(-/-) deleted cells were purchased from Kyinno Biotechnology (China); the cell culture medium, fetal bovine serum and penicillin-streptomycin were purchased from Thermo Fisher Scientific (USA); the Cell-Titer Glo kit was purchased from Promega Corporation (USA). The cells were cultured in a cell culture medium containing 90% RPMI1640 and 10% fetal bovine serum at 37°C and 5% CO2. Only cells in the logarithmic growth phase were used in the experiments.
(§1) The cell density was adjusted using complete medium and cells were then seeded into a 96-well cell culture plate. The cells in the 96-well plate were incubated at 37°C and 5% CO2. Two test compounds were added to the cell plate by serial dilution. After addition, the cells in the 96-well plate were incubated at 37°C and 5% CO2 for 144 hours. The CTG reagent was thawed and the cell plate was equilibrated to room temperature for 30 minutes. An equal volume of CTG solution was added to each well. The plate was shaken on an orbital shaker for 5 minutes to lyse the cells. The cell plate was placed at room temperature for 20 minutes to stabilize the luminescence signal. The luminescence values were read and data were collected.
(§2) Calcusyn was used to analyze the combination index (CI) values.

[2] = test system: HCT116 MTAP (-/-) deleted cells; assay: as above; conditions: single agent
Procedure: The HCT116 MTAP (-/-) deleted cells were provided by Kyinno Biotechnology Inc. The cells were cultured in a cell culture medium containing 90% RPMI1640 and 10% fetal bovine serum at 37°C and 5% CO2. Only cells in the logarithmic growth phase were used in the experiments.
as §1, with “384-well” for “96-well”
as §2

| SMILES | IC20 [1] | IC50 [1] | Maximum Inhibition Rate (%) [1] | IC20 [2] | IC50 [2] | Maximum Inhibition Rate (%) [2] | other results |
| --- | --- | --- | --- | --- | --- | --- | --- |
| Nc1nc2cc(F)c(C(=O)N(Cc3ccc(C(F)(F)F)cn3)C3CC3)cc2n2cncc12 | 50.9 nM | 187 nM | 68.3% | – | – | – | – |
| CN(C(=O)c1cc2c(cc1F)nc(N)c1cncn12)[C@@H]1COc2cc(C(F)(F)F)ccc21 | 22.2 nM | 79.8 nM | 62.7% | – | – | – | – |
| C[C@H](c1ccc(C(F)(F)F)cn1)N(C(=O)c1cc2c(cc1F)nc(N)c1cncn12)C1CC1 | 25 nM | 90.9 nM | 63.6% | – | – | – | Inhibition Rate (%) ([1]; Compound C 12 nM + IDE397 0 nM): -4.0%; Inhibition Rate (%) ([1]; Compound C 37 nM + IDE397 0 nM): 10.2%; Inhibition Rate (%) ([1]; Compound C 111 nM + IDE397 0 nM): 38.3%; Inhibition Rate (%) ([1]; Compound C 333 nM + IDE397 0 nM): 64.0%; Inhibition Rate (%) ([1]; Compound C 1000 nM + IDE397 0 nM): 70.0%; Inhibition Rate (%) ([1]; Compound C 3000 nM + IDE397 0 nM): 71.4% |
| Nc1nc(=O)n(-c2ccccc2Cl)c2nc(C(F)(F)F)ccc12 | 4.58 nM | 21.8 nM | 57.0% | 4.2 nM | 13.4 nM | 75.0% | Inhibition Rate (%) ([1]; Compound C 0 nM + IDE397 3 nM): 9.3%; Inhibition Rate (%) ([1]; Compound C 0 nM + IDE397 12 nM): 15.8%; Inhibition Rate (%) ([1]; Compound C 0 nM + IDE397 47 nM): 24.5%; Inhibition Rate (%) ([1]; Compound C 0 nM + IDE397 188 nM): 32.0%; Inhibition Rate (%) ([1]; Compound C 0 nM + IDE397 750 nM): 42.6%; Inhibition Rate (%) ([1]; Compound C 0 nM + IDE397 3000 nM): 44.9% |
| CN(C(=O)c1ccc2nc(N)c3cncn3c2c1)[C@@H]1COc2cc(C(F)(F)F)ccc21 | 29.5 nM | 102 nM | 64.8% | 2.6 nM | – | 84.5% | – |
| COc1ccc(-c2c(Nc3ccccn3)[nH]c3c(C4=CCCCC4)c(-c4ccccc4)nn3c2=O)cc1 | – | – | – | 11.9 nM | 40 nM | 92.4% | – |

From EP4830724A1, “PHARMACEUTICAL COMPOSITION CONTAINING PRMT5 INHIBITOR AND MAT2A INHIBITOR” (dated 2026)
